This note sets out measurements from patent publication US20110281852A1 (priority 2010, published 2011).

For the data set, the system named is RN46A cells. Put plainly: MTT assay, viability of RN46A cells. Particulars: evodiamine 2 and 4 μM.

Consider evodiamine, for which the “effect on cell viabilities” value is on record as “did not appear to decrease cell viabilities significantly”.
